From US7759375B2, “Epothilones C, D, E, and F, preparation and compositions” (priority 1996, dated 2010) come the findings set out here.

Amino acid sequences for entries named in this document (tags omitted).
UniProt P02554, whole entry: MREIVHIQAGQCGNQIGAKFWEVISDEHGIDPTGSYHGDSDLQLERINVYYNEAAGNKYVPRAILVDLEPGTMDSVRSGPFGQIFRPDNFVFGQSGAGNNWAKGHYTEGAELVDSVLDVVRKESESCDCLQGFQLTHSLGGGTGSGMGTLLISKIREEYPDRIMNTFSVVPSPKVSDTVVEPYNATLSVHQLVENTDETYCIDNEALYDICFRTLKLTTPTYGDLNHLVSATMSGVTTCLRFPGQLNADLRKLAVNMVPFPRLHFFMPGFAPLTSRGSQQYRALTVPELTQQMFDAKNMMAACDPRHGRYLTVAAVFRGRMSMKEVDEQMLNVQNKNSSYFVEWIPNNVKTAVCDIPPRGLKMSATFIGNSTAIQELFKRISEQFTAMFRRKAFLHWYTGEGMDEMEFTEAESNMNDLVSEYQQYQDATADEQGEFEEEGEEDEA

Each structure is given as a SMILES string.

This assay deals with T1, purified tubulin from pigs' brain (Sus scrofa, UniProt P02554).
T1 construct: purified tubulin from pigs' brain; from tissue; host or cells: pig brain
The assay is classed as biochemical, pig. The settings on record: 0.9 mg of tubulin/ml, 1 μM sample concentration. The protocol:
The epothilones according to the invention were tested with cell cultures (Table 2) and for promotion of polymerization (Table 3).
The polymerization test is an in vitro test using purified tubulin from pigs' brain. Evaluation is carried out photometrically.

As for `C/C(=C\c1csc(CO)n1)[C@@H]1C[C@@H]2O[C@]2(C)CCC[C@H](C)[C@H](O)[C@@H](C)C(=O)C(C)(C)[C@@H](O)CC(=O)O1` [Epothilone F], the “Time up to the half-maximal polymerization, Agent [%] (relative activity in % of the control)” value (control = 100, lowest values indicate the best activity) was 26%. In addition, the “Time up to the half-maximal polymerization of the control, Agent [s]” value (average of experiments w-z, control 190 s) is 50 s. Besides, the “Time up to the half-maximal polymerization of the control, measurement w” value (independent experiment w) turned out to be 80 s. Also, the “Time up to the half-maximal polymerization of the control, measurement x” value (independent experiment x) is 40 s. Further, for the setting “independent experiment y”, the “Time up to the half-maximal polymerization of the control, measurement y” value is reported as 30 s. For the same compound, the “Time up to the half-maximal polymerization of the control, measurement z” value (independent experiment z) is 50 s.
